Assay results published in ChEMBL document CHEMBL1158463 (J Med Chem, 2009).
Calls of active or inactive are those of the source. The rule behind the calls is not given here.

Test system: Mus musculus
Test: Antagonist activity at ORL1 receptor in CD1 (ICR) mouse assessed as reversal of WO03/10168-induced locomotor activity at 10 mg/kg, sc administered 30 mins prior to WO03/10168 challenge

SMILES	Activity
O=c1n(C[C@@H](O)CO)c2ccccc2n1C1CCN(C[C@H]2[C@H]3CC[C@H](C3)C23CC3)CC1	inactive
CCn1c(=O)n([C@@H]2CCN(CC3CCCC34CCC4)C[C@H]2CO)c2ccccc21 (some centres not stated)	inactive
CCn1c(=O)n([C@@H]2CCN(CC3CCCCC3(C)C)C[C@H]2CO)c2ccccc21 (some centres not stated)	inactive
CCn1c(=O)n([C@@H]2CCN(CC3CCCCCC3)C[C@H]2CO)c2ccccc21	inactive
CCn1c(=O)n([C@@H]2CCN(C[C@H]3[C@H]4CC[C@H](C4)C3(C)C)C[C@H]2CO)c2ccccc21	inactive
CCn1c(=O)n([C@@H]2CCN(CC3CCCCC34CCCC4)C[C@H]2CO)c2ccccc21 (some centres not stated)	inactive
CCn1c(=O)n([C@@H]2CCN(CC3CCCC34CCCC4)C[C@H]2CO)c2ccccc21 (some centres not stated)	inactive
CCn1c(=O)n([C@@H]2CCN(C[C@@H]3C[C@@H]4CC[C@H]3C4)C[C@H]2CO)c2ccccc21	inactive
CCn1c(=O)n([C@@H]2CCN(CC3CCCCC3)C[C@H]2CO)c2ccccc21	inactive
CCn1c(=O)n([C@@H]2CCN(CC3CCCC3(C)C)C[C@H]2CO)c2ccccc21 (some centres not stated)	inactive
CCn1c(=O)n([C@@H]2CCN(CC3CCCCC34CC4)C[C@H]2CO)c2ccccc21 (some centres not stated)	inactive
CCn1c(=O)n([C@@H]2CCN(CC3CCCC34CCCCC4)C[C@H]2CO)c2ccccc21 (some centres not stated)	inactive
CCn1c(=O)n([C@@H]2CCN(CC3CCCCC34CCC4)C[C@H]2CO)c2ccccc21 (some centres not stated)	inactive
CCn1c(=O)n([C@@H]2CCN(CC3CCCCC34CCCCC4)C[C@H]2CO)c2ccccc21 (some centres not stated)	inactive
O=c1n(C(CO)CO)c2ccccc2n1C1CCN(C[C@H]2[C@H]3CC[C@H](C3)C23CC3)CC1	inactive
CCn1c(=O)n([C@@H]2CCN(CCC3(C)CCCC3)C[C@H]2CO)c2ccccc21	inactive
CCn1c(=O)n([C@@H]2CCN(CC3CCCC34CC4)C[C@H]2CO)c2ccccc21 (some centres not stated)	inactive
CCn1c(=O)n([C@@H]2CCN(CC3CCCCCCCCC3)C[C@H]2CO)c2ccccc21	inactive
CCn1c(=O)n([C@@H]2CCN(CCC(C)(C)C)C[C@H]2CO)c2ccccc21	inactive
CCn1c(=O)n([C@@H]2CCN(CC3CCCCCCCC3)C[C@H]2CO)c2ccccc21	inactive
O=c1n(C[C@H](O)CO)c2ccccc2n1C1CCN(C[C@H]2[C@H]3CC[C@H](C3)C23CC3)CC1	inactive
CCn1c(=O)n([C@@H]2CCN(CC3CCCC3)C[C@H]2CO)c2ccccc21	inactive
